Ab-14 light chain CDR variants: yeast mating affinities

Binding partner: SARS-CoV-2 spike HR2 peptide, sequence PDVDLGDISGINAS.

Parent: Ab-14, a human scFv built as VH, a 15-residue (Gly4Ser)3 linker, VL. Only the CDRs of the light chain vary.
VH: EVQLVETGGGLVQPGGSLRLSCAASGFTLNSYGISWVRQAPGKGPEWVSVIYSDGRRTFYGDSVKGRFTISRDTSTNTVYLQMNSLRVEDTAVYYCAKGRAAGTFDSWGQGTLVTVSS
VL: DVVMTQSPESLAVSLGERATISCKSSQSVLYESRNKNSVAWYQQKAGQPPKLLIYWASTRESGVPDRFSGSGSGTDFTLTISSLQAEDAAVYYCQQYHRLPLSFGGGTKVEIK

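The parent was found by panning a naive human phage display library on the peptide. In library AAYL50, one, two or three CDR residues were substituted; doubles and triples were drawn at random. Affinity was read by AlphaSeq, a pooled yeast mating assay with surface-displayed partners. The frequency of each diploid, read from paired DNA barcodes, reflects how well the two displayed proteins bind. A regression on co-assayed BCL2-family reference pairs converts the normalised counts of each replicate to an apparent Kd. Mating was done three times.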

Positions count from residue 1 of the parent VL; S58K puts K in place of S. The read-out is the apparent dissociation constant on a log10 scale (nM): the lower, the stronger. The mean shown is taken over the replicates in which the pair was detected. An entry "n.d." has no value in the source: the pair was not observed among the diploids in that replicate. This suggests poor binding but is not conclusive. As a blank, each scFv also met three strains without target: over library AAYL50, 18% of these pairings were detected, typically at 4.19 and seldom below 2.99. The control count says in how many pairings with the empty strains this scFv gave a signal, with their mean in brackets.

{"changes": "S58K+T59W+R60N", "log10 Kd (nM) by replicate": "n.d. n.d. n.d.", "mean log10 Kd (nM)": "n.d.", "empty controls": "0 of 9"}
{"changes": "S25Q+L30G+A57N", "log10 Kd (nM) by replicate": "n.d. n.d. 5.48", "mean log10 Kd (nM)": "5.48", "empty controls": "1 of 9 (3.88)"}
{"changes": "L30T+V39W+L100K", "log10 Kd (nM) by replicate": "n.d. n.d. n.d.", "mean log10 Kd (nM)": "n.d.", "empty controls": "6 of 9 (4.30)"}
{"changes": "Q27W+R34V+R60C", "log10 Kd (nM) by replicate": "n.d. 2.74 n.d.", "mean log10 Kd (nM)": "2.74", "empty controls": "1 of 9 (3.56)"}
{"changes": "W56G+R99G+L100S", "log10 Kd (nM) by replicate": "0.16 0.45 0.32", "mean log10 Kd (nM)": "0.31", "empty controls": "1 of 9 (4.25)"}
{"changes": "E32F+S38V+Q95G", "log10 Kd (nM) by replicate": "n.d. n.d. n.d.", "mean log10 Kd (nM)": "n.d.", "empty controls": "0 of 9"}
{"changes": "N37T+R60N+P101R", "log10 Kd (nM) by replicate": "6.55 3.76 n.d.", "mean log10 Kd (nM)": "5.15", "empty controls": "4 of 9 (4.31)"}
{"changes": "Q27S+N35L+R99I", "log10 Kd (nM) by replicate": "n.d. n.d. n.d.", "mean log10 Kd (nM)": "n.d.", "empty controls": "1 of 9 (4.22)"}
{"changes": "P101R", "log10 Kd (nM) by replicate": "n.d. n.d. n.d.", "mean log10 Kd (nM)": "n.d.", "empty controls": "0 of 9"}
{"changes": "S33Y+N37R+V39P", "log10 Kd (nM) by replicate": "n.d. n.d. n.d.", "mean log10 Kd (nM)": "n.d.", "empty controls": "1 of 9 (3.52)"}
{"changes": "S25H+V29Y+S38Y", "log10 Kd (nM) by replicate": "1.57 2.60 1.88", "mean log10 Kd (nM)": "2.02", "empty controls": "0 of 9"}
{"changes": "Q27L+N35C+E61M", "log10 Kd (nM) by replicate": "1.23 1.31 1.35", "mean log10 Kd (nM)": "1.30", "empty controls": "2 of 9 (3.93)"}
{"changes": "S28L+R60K+S103I", "log10 Kd (nM) by replicate": "0.90 1.35 1.12", "mean log10 Kd (nM)": "1.12", "empty controls": "1 of 9 (4.63)"}
{"changes": "V29I+A40T+W56Y", "log10 Kd (nM) by replicate": "4.52 n.d. n.d.", "mean log10 Kd (nM)": "4.52", "empty controls": "1 of 9 (3.81)"}
{"changes": "Y31L+R60W+H98R", "log10 Kd (nM) by replicate": "4.63 n.d. n.d.", "mean log10 Kd (nM)": "4.63", "empty controls": "0 of 9"}
{"changes": "Q27S+N35D+Y97T", "log10 Kd (nM) by replicate": "1.92 1.82 1.96", "mean log10 Kd (nM)": "1.90", "empty controls": "3 of 9 (4.57)"}
{"changes": "S28D+Y31W+N35E", "log10 Kd (nM) by replicate": "n.d. n.d. n.d.", "mean log10 Kd (nM)": "n.d.", "empty controls": "0 of 9"}
{"changes": "V39R+T59Y+L100C", "log10 Kd (nM) by replicate": "n.d. n.d. n.d.", "mean log10 Kd (nM)": "n.d.", "empty controls": "1 of 9 (5.92)"}
{"changes": "V29H+A40Q", "log10 Kd (nM) by replicate": "n.d. 2.47 n.d.", "mean log10 Kd (nM)": "2.47", "empty controls": "0 of 9"}
{"changes": "N35I+N37V+P101M", "log10 Kd (nM) by replicate": "n.d. n.d. n.d.", "mean log10 Kd (nM)": "n.d.", "empty controls": "0 of 9"}
{"changes": "S33M+N35S+W56P", "log10 Kd (nM) by replicate": "n.d. n.d. n.d.", "mean log10 Kd (nM)": "n.d.", "empty controls": "0 of 9"}
{"changes": "Y97T", "log10 Kd (nM) by replicate": "n.d. n.d. n.d.", "mean log10 Kd (nM)": "n.d.", "empty controls": "0 of 9"}
{"changes": "Y31W", "log10 Kd (nM) by replicate": "0.99 1.20 0.94", "mean log10 Kd (nM)": "1.04", "empty controls": "2 of 9 (4.03)"}
{"changes": "R60F+E61V+S103G", "log10 Kd (nM) by replicate": "n.d. n.d. n.d.", "mean log10 Kd (nM)": "n.d.", "empty controls": "0 of 9"}
{"changes": "A40M+S62T+Q96Y", "log10 Kd (nM) by replicate": "n.d. n.d. n.d.", "mean log10 Kd (nM)": "n.d.", "empty controls": "0 of 9"}
{"changes": "K24R+Y31A+R99T", "log10 Kd (nM) by replicate": "0.58 0.80 0.79", "mean log10 Kd (nM)": "0.72", "empty controls": "0 of 9"}

Top 4 of the variants detected in all replicates, tightest first:

| changes | log10 Kd (nM) by replicate | mean log10 Kd (nM) | empty controls |
|---|---|---|---|
| W56G+R99G+L100S | 0.16 0.45 0.32 | 0.31 | 1 of 9 (4.25) |
| K24R+Y31A+R99T | 0.58 0.80 0.79 | 0.72 | 0 of 9 |
| Y31W | 0.99 1.20 0.94 | 1.04 | 2 of 9 (4.03) |
| S28L+R60K+S103I | 0.90 1.35 1.12 | 1.12 | 1 of 9 (4.63) |

Source: Engelhart et al. 2022 (doi:10.1038/s41597-022-01779-4), MIT Lincoln Laboratory and A-Alpha Bio; data file from the FLAb repository.